Measured values from patent US20130205416A1, “ANTI-VIRAL AGENT” (priority 2010, published 2013).

Assay: Immunogenicity, serum IgG ELISA after repeat administration
Settings: repeat administration 20 μg/mouse, even at 1:10 dilutions of serum

CC[C@H](C)[C@H](NC(=O)[C@@H](NC(=O)[C@H](Cc1ccccc1)NC(=O)[C@H](Cc1ccccc1)NC(=O)[C@@H](NC(=O)[C@H](CC(C)C)NC(=O)[C@@H](N)Cc1c[nH]c2ccccc12)C(C)C)C(C)C)C(=O)N[C@@H](C)C(=O)N[C@@H](Cc1ccc(O)cc1)C(=O)N[C@@H](Cc1ccccc1)C(=O)N[C@@H](C)C(=O)N[C@@H](CCCNC(=N)N)C(=O)O
immunogenicity (serum IgG by ELISA): neither FP2 nor FP4 peptides were immunogenic
